What was measured:
[1] = biological target: collectin-11 (recombinant) (UniProt Q9BWP8)
[2] = biological target: collectin-11 (recombinant) (UniProt Q9BWP8); test: ELISA; plates coated with 4 μg/ml recombinant CL-11 or ficolin-1, -2, -3 in 0.1 mol/L carbonate buffer pH 9.6; THP 0.3125 to 10 μg/mL in VBS with 0.5 mmol/L MgCl2, 0.15 mmol/L CaCl2, 37°C, 1 hour; detected with anti-uromodulin polyclonal antibody; OD405

Tamm-Horsfall protein (native, purified from urine) (from UniProt P07911 25-587) (natural protein)
inhibition of haemolysis of chicken erythrocytes by the lectin pathway (MBL deficient serum, anti-C1q antibody, 0.15 mmol/L CaCl2), THP 0 to 10 μmol/L [1]: 90%

Tamm-Horsfall protein treated with endoglycosidase H (high-mannose glycans removed) (from UniProt P07911 25-614) (natural protein)
binding ability, percent of native THP [2]: 30%

Tamm-Horsfall protein treated with PNGaseF in non-reduced, non-denaturing condition (part of the N-glycan removed) (from UniProt P07911 25-614) (natural protein)
binding ability, percent of native THP [2]: 60%

Reference: paper PMC7131921
